Structures are written as SMILES.

The assay addresses T1, Corticotropin-releasing factor receptor 1 (Homo sapiens, UniProt P34998).
T1 sequence (P34998 whole entry): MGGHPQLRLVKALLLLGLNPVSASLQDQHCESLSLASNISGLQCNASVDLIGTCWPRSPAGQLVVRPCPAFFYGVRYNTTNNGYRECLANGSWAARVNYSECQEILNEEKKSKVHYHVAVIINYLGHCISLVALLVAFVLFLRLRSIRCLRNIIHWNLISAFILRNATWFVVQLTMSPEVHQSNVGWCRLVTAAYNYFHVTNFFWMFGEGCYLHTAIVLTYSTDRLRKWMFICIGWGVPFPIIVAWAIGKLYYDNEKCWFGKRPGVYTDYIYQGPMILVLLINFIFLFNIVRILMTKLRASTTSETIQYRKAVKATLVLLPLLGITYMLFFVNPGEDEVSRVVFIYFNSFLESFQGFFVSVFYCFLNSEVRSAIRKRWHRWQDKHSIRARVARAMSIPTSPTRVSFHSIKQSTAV
As to the kind of experiment: Inhibition of [125I]o-CRF binding to human Corticotropin releasing factor receptor 1 expressed in CHO cells. Type of assay: cell-based.
For orientation: Ki means a measure of affinity in units of concentration, obtained from inhibition or displacement. Low readings indicate a stronger hold on the target, high ones a looser hold on the target. In the case of `CCCN(c1n[nH]c(-c2c(C)cc(C)cc2C)n1)C(C1CC1)C1CC1`, the Ki came to 3200 nM.
Consider `CCCN(c1nc(-c2ccc(C)cc2C)n(C)n1)C(C1CC1)C1CC1`, for which the affinity, expressed as Ki, was 72 nM.
In the case of `CCCN(c1nc(-c2c(C)cc(C)cc2C)n(CC(F)(F)F)n1)C(C1CC1)C1CC1`, the affinity, expressed as Ki, was 1500 nM.

(Values after ChEMBL document CHEMBL1134154, “1-Alkyl-3-amino-5-aryl-1H-[1,2,4]triazoles: novel synthesis via cyclization of N-acyl-S-methylisothioureas with alkylhydrazines and their potent corticotropin-releasing factor-1 (CRF(1)) receptor antagonist activities” (Bioorg Med Chem Lett, 2001).)
